Source: PubChem BioAssay AID465 (The Scripps Research Institute Molecular Screening Center, 2006)
Only a part is listed here, and it is no random draw. Activity calls are given as the source filed them.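 Rule for the calls: active = inhibition above the mean of all tested compounds plus 3 SD (cut at about 40% in these data); inactive = the rest.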

Assay: inhibitors of PMA/ionomycin-induced NF-kB reporter, primary screen, antigen receptor NF-kB inhibitor project, cell-based, HEK-293 luciferase reporter, luminescence (AID 465);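 note: 0% = stimulated DMSO wells and 100% = 10 µM reference inhibitor 5653914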
Conditions: HEK-293 NF-kB luciferase reporter, at 3 µM, stronger effect = higher value

SMILES | inhibition
COc1ccccc1OP(C)(=O)Nc1ccc(C)c(C)c1 (configuration not stated) | inactive: 14.2%
Cc1nc2ccc3ccccc3c2o1.O=[N+]([O-])c1cc([N+](=O)[O-])c(O)c([N+](=O)[O-])c1 | inactive: 3.5%
CP(=O)(Nc1ccccn1)Oc1ccccc1 (configuration not stated) | inactive: 7.9%
CP(=O)(Oc1ccccc1)N1CCOC1=O (configuration not stated) | inactive: -1.7%
COc1ccccc1OP(C)(=O)Nc1c(C)n(C)n(-c2ccccc2)c1=O (configuration not stated) | inactive: 16.6%
CN(C)CCOC(=O)C(O)(c1ccccc1)C1CCCCC1 (configuration not stated) | inactive: 18.2%
CCOP(C)(=S)SCC(=O)NC(C)(CC)C(=O)O (configuration not stated) | inactive: 12.5%
CP(=O)(Nc1ccc2c(c1)OCCO2)Oc1ccccc1 (configuration not stated) | inactive: 5.7%
Cc1ccccc1NP(C)(=O)Nc1ccccc1C | inactive: -0.3%
CP(=O)(Nc1ccccc1F)Oc1ccccc1 (configuration not stated) | inactive: 1.7%
Cc1ccc(C)c(NP(C)(=O)Oc2ccccc2)c1 (configuration not stated) | inactive: 6.9%
Cc1nc2ccc3ccccc3c2s1.O=[N+]([O-])c1cc([N+](=O)[O-])c(O)c([N+](=O)[O-])c1 | inactive: 24.6%
CP(=S)(Nn1cnnc1)Oc1ccccc1 (configuration not stated) | inactive: 12.1%
CP(=O)(NC(=O)Nc1ccccc1)Oc1ccccc1 (configuration not stated) | inactive: 6.3%
CCOP(C)(=S)SCC(=O)NC(C)C(=O)O (configuration not stated) | inactive: 16.7%
COc1ccccc1OP(C)(=O)Nc1ccc(C)cc1 (configuration not stated) | inactive: -1.2%
Cc1ccc(NP(C)(=O)Oc2ccccc2)c(C)c1 (configuration not stated) | inactive: 12.8%
